Out of some 210,000 compounds screened, about 880 (0.42%) were called active. Only a selection was taken, and actives are over-represented in it overall. Values without a mark were called inactive.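 How the source made its calls: active means replicate mean at 85% of control or lower with very high polarization wells dropped (limit read from the data); inactive means the rest.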
target: Guanine nucleotide-binding protein G(i) subunit alpha-3 (Rattus norvegicus) (UniProt P08753); assay: disruptors of GIV-Galphai3 protein-protein interaction – biochemical, fluorescence polarization, FITC-GIV GBA peptide, rat Galphai3, primary screen (AID 1224905); conditions: Galpha-i3/FITC-GIV peptide fluorescence polarization, 90 min, hits give low values;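 further: lower values mean more displacement of the GIV peptide from Galpha-i3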

Amino acid sequences for entries named in this document (tags omitted).
UniProt P08753, whole entry, looked up: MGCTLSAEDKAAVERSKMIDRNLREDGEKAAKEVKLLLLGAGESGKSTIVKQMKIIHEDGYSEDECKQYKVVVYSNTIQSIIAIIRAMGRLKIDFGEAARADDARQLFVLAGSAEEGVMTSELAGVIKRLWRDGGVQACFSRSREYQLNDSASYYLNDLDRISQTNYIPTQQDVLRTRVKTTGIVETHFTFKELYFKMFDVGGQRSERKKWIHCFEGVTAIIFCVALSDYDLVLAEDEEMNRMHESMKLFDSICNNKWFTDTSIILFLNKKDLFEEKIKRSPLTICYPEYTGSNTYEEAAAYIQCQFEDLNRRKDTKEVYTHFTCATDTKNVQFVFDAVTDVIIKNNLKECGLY

Q: For `CN1CCc2c(c(S)[nH]c(=S)c2C#N)C1`, which percent of control (FP) is on record?
A: Its percent of control (FP) is 35% (active).

Q: With `O=C(NCCN1CCOCC1)c1cc2cccnc2n(Cc2ccccc2)c1=O` as the compound, how does the percent of control (FP) read?
A: Its percent of control (FP) is 108% [scaled: aluminum fluoride 0%, vehicle 100%].

Q: How did the percent of control (FP) turn out when `CCOC(=O)C1CC2CCCN2C12C(=O)N(Cc1ccccc1)c1ccccc12` (stereo not given) was run?
A: The percent of control (FP) was 101%.

Q: With `O=c1c2ccccc2nc(COc2ccc(Cl)cc2)n1-c1ccc(Br)cn1` as the compound, how does the percent of control (FP) read?
A: Its percent of control (FP) is 98.1%.

Q: Which percent of control (FP) does the source give for `Cc1nc2nc(-c3ccc(C(C)(C)C)cc3)nn2c(C)c1CC(=O)N1CCN(CCO)CC1` here?
A: Its percent of control (FP) is 102% [scaled: aluminum fluoride 0%, vehicle 100%].
